Test results taken from ChEMBL document CHEMBL1139982, “Carbonic anhydrase activators: the first activation study of the human secretory isoform VI with amino acids and amines” (Bioorg Med Chem, 2007).

Key:
[1] = substrate: N[C@@H](Cc1ccccc1)C(=O)O; settings: Homo sapiens; 10 uM
[2] = substrate: N[C@H](Cc1ccccc1)C(=O)O; settings: Homo sapiens; 10 uM

B1: Carbonic anhydrase 6 (Homo sapiens), P23280 (protein)
chain: MRALVLLLSLFLLGGQAQHVSDWTYSEGALDEAHWPQHYPACGGQRQSPINLQRTKVRYNPSLKGLNMTGYETQAGEFPMVNNGHTVQISLPSTMRMTVADGTVYIAQQMHFHWGGASSEISGSEHTVDGIRHVIEIHIVHYNSKYKSYDIAQDAPDGLAVLAAFVEVKNYPENTYYSNFISHLANIKYPGQRTTLTGLDVQDMLPRNLQHYYTYHGSLTTPPCTENVHWFVLADFVKLSRTQVWKLENSLLDHRNKTIHNDYRRTQPLNHRVVESNFPNQEYTLGSEFQFYLHKIEEILDYLRRALN
Which results are given for B1?
kcat [1]: 10.3 10^5/s; kcat [2]: 4.9 10^5/s
